{"source": "ChEMBL document CHEMBL4257577"}
{"target": "Acetylcholinesterase (Homo sapiens, UniProt P22303)", "assay": "Reversible inhibition of recombinant human recombinant AChE using acetylthiocholine iodide as substrate by Ellman spectrophotometric method", "units": {"Ki": "µM"}}
{"smiles": "NC(=O)c1cc[n+](C/C=C/C[n+]2ccc(/C=N/O)c(Cl)c2)cc1", "Ki": 24}
{"smiles": "NC(=O)c1cc[n+](CCCC[n+]2ccc(/C=N/O)c(Cl)c2)cc1", "Ki": 36}
{"smiles": "NC(=O)c1cc[n+](CCC[n+]2ccc(/C=N/O)c(Cl)c2)cc1", "Ki": 42}
{"smiles": "NC(=O)c1cc[n+](CCC[n+]2cc(Cl)c(/C=N/O)c(Cl)c2)cc1", "Ki": 21}
{"smiles": "NC(=O)c1cc[n+](C/C=C/C[n+]2cc(Cl)c(/C=N/O)c(Cl)c2)cc1", "Ki": 22}
{"smiles": "NC(=O)c1cc[n+](CCCC[n+]2cc(Cl)c(/C=N/O)c(Cl)c2)cc1", "Ki": 12}
